Earlier results on 1 substance are cited in US8426345B2, “Method of drug design” (Alchemia Limited, priority 2005, dated 2013).

Chains of the proteins cited; added tags and fusions are not shown. Lines headed by an entry give the natural chain unless they say otherwise; changes in a name come on top.
UniProt P35346: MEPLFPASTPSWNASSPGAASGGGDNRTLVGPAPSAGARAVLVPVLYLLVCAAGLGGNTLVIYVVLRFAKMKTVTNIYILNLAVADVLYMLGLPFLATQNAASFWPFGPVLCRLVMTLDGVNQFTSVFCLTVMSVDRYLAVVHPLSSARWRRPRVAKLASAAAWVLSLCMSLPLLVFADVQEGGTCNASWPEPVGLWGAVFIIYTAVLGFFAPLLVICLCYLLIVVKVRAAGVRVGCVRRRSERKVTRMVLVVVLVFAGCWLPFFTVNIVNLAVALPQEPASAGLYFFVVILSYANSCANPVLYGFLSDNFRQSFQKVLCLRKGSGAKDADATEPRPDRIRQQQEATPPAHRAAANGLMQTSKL

The target of this data set is T1, Human SST5 somatostatin receptor (Homo sapiens, UniProt P35346).
T1 construct: expressed in transfected cells; host or cells: HEK-293 EBNA cells (membranes)
To be noted: human SST5 receptor membranes from HEK-293 EBNA cells; receptor preparation data; read-out: Kd for [125I]SST-14 Binding; cited from earlier work.

Consider “[^125I]SST-14: radio-labeled SST-14, a truncated version of the natural ligand SST-28; reference ligand of the SST5 assay”, for which the Kd (usually the equilibrium constant for the complex coming apart) was 0.31 nM.
